The assay addresses Kappa-type opioid receptor (Mus musculus) (UniProt P33534). Briefly: Selectivity against kappa receptor in the presence of 0.5 nmol icv SIOM.

The chains behind the UniProt entries cited, without tags or fusion partners. Where a name states a change or a piece, a line headed by the entry shows the natural chain unless it says otherwise.
UniProt P33534: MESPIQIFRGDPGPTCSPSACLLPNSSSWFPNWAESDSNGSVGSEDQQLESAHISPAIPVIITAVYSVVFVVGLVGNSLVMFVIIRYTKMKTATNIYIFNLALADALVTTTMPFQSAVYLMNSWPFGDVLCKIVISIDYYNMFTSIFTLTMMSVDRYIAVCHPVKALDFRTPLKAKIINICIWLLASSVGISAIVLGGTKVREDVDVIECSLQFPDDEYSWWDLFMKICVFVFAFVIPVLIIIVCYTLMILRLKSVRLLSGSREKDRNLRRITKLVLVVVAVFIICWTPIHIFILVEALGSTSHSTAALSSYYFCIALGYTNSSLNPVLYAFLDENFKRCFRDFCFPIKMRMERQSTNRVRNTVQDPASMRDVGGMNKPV

On to `CN(C(=O)Cc1ccc(Cl)c(Cl)c1)C1CCCCC1N1CCCC1` (stereo unspecified), for which the Ratio came to 0.8.
